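Tested at 5 concentrations; 48 h exposure; 96-well plates; endpoints linearly interpolated, else capped at highest concentration. Abbreviation: GI50, concentration required for 50% inhibition of growth. TGI denotes the concentration required for complete inhibition of growth.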
Legend:
Assay in all cases: inhibition of tumour cell growth, NCI panel, 48 h
SW-620 colon = system: SW-620 colon
EKVX NSCLC = system: EKVX NSCLC
SN12C renal = system: SN12C renal
RPMI-8226 leukemia = system: RPMI-8226 leukemia
HOP-92 NSCLC = system: HOP-92 NSCLC
UACC-62 melanoma = system: UACC-62 melanoma
HT29 colon = system: HT29 colon
UO-31 renal = system: UO-31 renal
SNB-75 CNS = system: SNB-75 CNS
MDA-MB-435 = system: MDA-MB-435
786-0 renal = system: 786-0 renal
HCT-116 colon = system: HCT-116 colon
COLO 205 colon = system: COLO 205 colon
MCF7 breast = system: MCF7 breast
SF-268 CNS = system: SF-268 CNS
HL-60(TB) leukemia = system: HL-60(TB) leukemia
SK-OV-3 ovarian = system: SK-OV-3 ovarian
SNB-19 CNS = system: SNB-19 CNS
T-47D breast = system: T-47D breast
M14 melanoma = system: M14 melanoma
UACC-257 melanoma = system: UACC-257 melanoma
HCC-2998 colon = system: HCC-2998 colon
HCT-15 colon = system: HCT-15 colon
NCI-H460 lung = system: NCI-H460 lung
OVCAR-8 ovarian = system: OVCAR-8 ovarian
SF-295 CNS = system: SF-295 CNS
A549 NSCLC = system: A549 NSCLC
CCRF-CEM leukemia = system: CCRF-CEM leukemia
SF-539 CNS = system: SF-539 CNS

## COc1ccc2c(c1)C1(C)CCC(O2)C12CO2 (configuration not stated)
SW-620 colon
  TGI: > 100 µM
EKVX NSCLC
  GI50: > 100 µM
  TGI: > 100 µM
SN12C renal
  GI50: 34.7 µM
  TGI: > 100 µM
RPMI-8226 leukemia
  GI50: > 100 µM
  TGI: > 100 µM
HOP-92 NSCLC
  GI50: > 100 µM
  TGI: > 100 µM
UACC-62 melanoma
  GI50: 72.4 µM
  TGI: > 100 µM
HT29 colon
  GI50: 60.1 µM
  TGI: > 100 µM
UO-31 renal
  GI50: 29.7 µM
  TGI: > 100 µM
SNB-75 CNS
  GI50: > 100 µM
  TGI: > 100 µM
MDA-MB-435
  GI50: 45.3 µM
  TGI: > 100 µM
786-0 renal
  GI50: 71.1 µM
  TGI: > 100 µM
HCT-116 colon
  GI50: 44.9 µM
  TGI: > 100 µM
COLO 205 colon
  GI50: > 100 µM
  TGI: > 100 µM
MCF7 breast
  GI50: 46.5 µM
  TGI: > 100 µM
SF-268 CNS
  GI50: 27.2 µM
  TGI: > 100 µM
HL-60(TB) leukemia
  GI50: 24.4 µM
  TGI: 67.4 µM
SK-OV-3 ovarian
  GI50: > 100 µM
  TGI: > 100 µM
SNB-19 CNS
  GI50: > 100 µM
  TGI: > 100 µM
T-47D breast
  GI50: > 100 µM
  TGI: > 100 µM
M14 melanoma
  GI50: 45.8 µM
  TGI: > 100 µM
UACC-257 melanoma
  GI50: > 100 µM
  TGI: > 100 µM
HCC-2998 colon
  GI50: > 100 µM
  TGI: > 100 µM
HCT-15 colon
  GI50: 50.6 µM
  TGI: > 100 µM
NCI-H460 lung
  GI50: > 100 µM
  TGI: > 100 µM
OVCAR-8 ovarian
  GI50: 37.4 µM
  TGI: > 100 µM
SF-295 CNS
  GI50: 65.2 µM
  TGI: > 100 µM
A549 NSCLC
  GI50: > 100 µM
  TGI: > 100 µM
CCRF-CEM leukemia
  GI50: 48 µM
  TGI: > 100 µM
SF-539 CNS
  GI50: > 100 µM
  TGI: > 100 µM

Reference: PubChem BioAssay (NCI)
